Data set [1] relates to patients with a history of myocardial infarction.
The conditions of data set [2]: cited from earlier work.
Data set [3] concerns patients with a history of myocardial infarction. The data set can be described thus: PEGASUS-TIMI 54 analysis by time from P2Y12 inhibitor withdrawal to randomization. Particulars: for hazard ratio for cardiovascular death, myocardial infarction, or stroke: 60 mg bid arm; for CVD, MI, or Stroke: Hazard Ratio: doses pooled vs. placebo, N = 17,885 patients with no history of MI or PCI within one year of randomization.

Data set [4] shares this test system. The data set can be described thus: PEGASUS-TIMI 54 trial, efficacy endpoints (intention-to-treat / full analysis set). Particulars: for Relative risk reduction (RRR) for the composite endpoint: 60 mg bid vs placebo. The class given is in vivo, human. The source says: The PEGASUS-TIMI 54 trial (also referred to as the PEGASUS trial or PEGASUS study herein) was a randomized, double-blind, placebo-controlled multinational clinical trial that enrolled over 21,000 patients at 1,161 sites in 31 countries. The protocol was approved by the relevant ethics committees at all participating sites. In the U.S., the PEGASUS trial was assigned a ClinicalTrials.gov number of NCT01225562. Results from the PEGASUS trial were discussed in Bonaca, Marc P., et al. “Long-term use of ticagrelor in patients with prior myocardial infarction.” New England Journal of Medicine 372.19 (2015): 1791-1800.
Patients could be randomized regardless of their prior adenosine diphosphate (ADP) receptor blocker therapy or a lapse in therapy.
Eligible patients were randomized in a 1:1:1 ratio to receive ticagrelor 90 mg orally twice daily, ticagrelor 60 mg orally twice daily, or placebo. Randomization was performed using a central computerized telephone or web based system, and allocation was double-blind.
All patients enrolled in the PEGASUS trial were instructed to take open label aspirin at a dose of 75 to 150 mg daily. Because the study population was stable, no loading dose of ticagrelor was administered.
A total of 1360 primary endpoint events would be required to provide approximately 90% power to detect a 20% relative risk reduction with the 90 mg twice daily dose and approximately 83% power to detect a 19% relative risk reduction with the 60 mg twice daily dose when each dose was compared individually with placebo. The primary efficacy analysis was conducted on an intention-to-treat basis, with each of the two doses individually compared to placebo, as a time to event analysis from randomization to the first occurrence of any element of the primary composite endpoint: cardiovascular death, myocardial infarction, or stroke. […] An exploratory analysis of both doses combined compared with placebo was prespecified.

Structures are written as SMILES. Where two headings read alike, the source gives them in different places.

Turning to `CCCSc1nc(N[C@@H]2C[C@H]2c2ccc(F)c(F)c2)c2nnn([C@@H]3C[C@H](OCCO)[C@@H](O)[C@H]3O)c2n1` [Ticagrelor, (1S,2S,3R,5S)-3-[7-{[(1R,2S)-2-(3,4-difluorophenyl)cyclopropyl]amino}-5-(propylthio)-3H-[1,2,3]-triazolo[4,5-d]pyrimidin-3-yl]-5-(2-hydroxyethoxy)cyclopentane-1,2-diol], the “ratio of fatal bleeding events over TIMI major bleeding events” value is 11/115 in data set [1] (60 mg arm) and 6/127 in data set [1] (90 mg arm). Besides, the “effect of a high-fat meal on peak plasma concentration (cmax)” value in data set [2] was “no effect”. Also, the “hazard ratio for cardiovascular death, myocardial infarction, or stroke” value amounted to 0.82 in data set [3] (31 days to one year after P2Y12 therapy withdrawal), 1.06 in data set [3] (more than one year after P2Y12 therapy withdrawal) and 0.75 in data set [3] (within 30 days of P2Y12 therapy withdrawal). Also, the “CVD, MI, or Stroke: Hazard Ratio” value in data set [3] (P2Y12 inhibitor withdrawal 0-30 day) is recorded as 0.73 (95% CI 0.60-0.87); in data set [3] (P2Y12 inhibitor withdrawal >1 year), 1.01 (95% CI 0.80-1.28); in data set [3] (P2Y12 inhibitor withdrawal >30 to 1 year) it was 0.84 (95% CI 0.70-1.02). The “Composite of CV Death/MI/Stroke, landmark: Hazard Ratio” value worked out at 0.83 in data set [4] (60 mg bd vs placebo, 1-360 days); 0.84 in data set [4] (60 mg bd vs placebo, 361 days or more); 0.87 in data set [4] (90 mg bd vs placebo, 1-360 days); 0.84 in data set [4] (90 mg bd vs placebo, 361 days or more). Moreover, the “Relative risk reduction (RRR) for the composite endpoint” value in data set [4] (from 1 to 360 days) is listed as 17%; in data set [4] (from 361 days and onwards), 16%.

The values above are taken from US10300065B2, “Method of treating or prevention of atherothrombotic events in patients with history of myocardial infarction” (ASTRAZENECA AB, priority 2015, dated 2019).
